According to patent US6039820A, “Metal complexes for use as gas generants” (dated 2000):

Key:
[1] = accelerated aging of pressed pellets in 95° C. oven, weight loss; conditions: four gram 1/2 inch pellets, 95° C. oven for 700 hours
[2] = test system: rat; conditions: cited from earlier work

Molecule | loss in weight after aging [1] | toxicity level as measured by oral rat LD50 [2]
hexaamminecobalt(III) nitrate | No loss in weight | 
[N-]=[N+]=[N-] |  | 45 mg/kg
